In paper PMC9059126, “Structure-Based Design of a Novel Class of Autotaxin Inhibitors Based on Endogenous Allosteric Modulators” (Journal of Medicinal Chemistry, 2022):

Biological target: ATX (Rattus norvegicus, UniProt Q64610)
Assay: Choline oxidase-coupled choline-release assay of LPC hydrolysis by ATX
Conditions: 20 nM ATX

SMILES: C[C@H](CCC(=O)O)[C@H]1CC[C@H]2[C@@H]3[C@@H](O)C[C@@H]4C[C@H](O)CC[C@]4(C)[C@H]3CC[C@]12C [Compound 9, ursodeoxycholic acid, reference compound]
- Residual Activity (%): 61%
